The values that follow come from article PMC10629533, “Structures and membrane interactions of native serotonin transporter in complexes with psychostimulants” (Proceedings of the National Academy of Sciences of the …, 2023).

Usually Kd stands for the constant that tells how readily two partners part at equilibrium. High values mean weaker binding, low ones tighter binding.

For this assay, the target named is porcine serotonin transporter (pSERT) (Sus scrofa, UniProt F1RN70). Kind of assay: [3H]paroxetine saturation binding, scintillation proximity assay. Also on record: gene SLC6A4; native pSERT in lysate of porcine brain membranes.

As for `Fc1ccc([C@@H]2CCNC[C@H]2COc2ccc3c(c2)OCO3)cc1` [paroxetine], the dissociation constant Kd was determined as 6.5 ± 1.3 nM.
